Test results taken from patent US7563445B2, “CD40 binding molecules and CTL peptides for treating tumors” (priority 1998, dated 2009).

The chains behind the UniProt entries cited, without tags or fusion partners. Residues count along the entry.
UniProt P27512, 20-289: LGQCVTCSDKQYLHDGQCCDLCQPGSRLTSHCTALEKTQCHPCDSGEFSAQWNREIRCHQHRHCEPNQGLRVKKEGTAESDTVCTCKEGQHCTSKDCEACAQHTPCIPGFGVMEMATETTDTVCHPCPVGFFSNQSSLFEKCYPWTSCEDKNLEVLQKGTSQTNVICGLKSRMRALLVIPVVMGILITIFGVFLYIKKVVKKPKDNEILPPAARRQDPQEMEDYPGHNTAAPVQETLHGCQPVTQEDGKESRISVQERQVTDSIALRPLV

Target: T1, CD40 (Mus musculus, UniProt P27512)
T1 construct: endogenous in cells
Assay: Cross-priming of E1B-specific CTLs in mice immunized with Ad5E1-BALB/c MECs, CD40 activation replacing CD4+ T help
Format: in vivo
Conditions: CD4-depleted mice after immunization; LPS 50 μg intravenous; IL-2 1×10^5 units in IFA subcutaneous (not shown)
Procedure: Splenocytes from normal (a) or CD4-depleted B6 (b) mice immunized with Ad5EI-BALB/c MECs were tested at various effector/target ratios for lysis of syngeneic MEC target cells loaded with the E1B192-200 peptide (solid lines), which is derived from human adenovirus and has the sequence […] (SEQ ID NO:1)or a D^d-restricted control peptide HPV-16 E749-57 (dashed lines). Each line represents one mouse. Data shown represent one experiment of three performed with similar results.
Splenocytes from CD4-depleted (a, b) or classII-deficient I-Ab-knockout (KO) (c,d) B6 mice were immunized with Ad5E1-BALB/c MECs and treated with either the CD40-activating antibody (Ab) FGK45 (a, c) or an isotype control antibody (b, d). These splenocytes were tested for E1B-specific CTL activity on syngeneic MEC target cells loaded with either the E1B192-200 peptide (solid lines) or the HPV-16 E749-57 control peptide (dashed lines). Each line represents a single mouse. Data depicted are from two independent experiments. E/T ratio, effector/target ratio. […]
To investigate whether signalling through CD40 can replace CD4^+ helper T cells in CTL priming, mice were depleted of CD4^+ T cells in vivo before immunization with Ad5E1BALB/c MECs. […] Priming of E1B-specific CTLs was not detected in naive mice treated with FGK45 alone (not shown). […]

IL-2: IL-2, cytokine given in incomplete Freund adjuvant
E1B-specific CTL activity / CTL priming: neither LPS or IL-2 treatment resulted in detectable CTL priming
